Measurements from patent publication USRE49949E1, “Reducing risk of contracting clostridium-difficile associated disease” (The Board of Regents of the Nevada System of Higher …, priority 2012, dated 2024).

Tested on: C. difficile strain 630 spores
Assay: CamSA dosage timing in CDI prevention
Conditions: 300 mg/Kg after spore challenge

C[C@H](CCC(=O)Nc1cccc(S(=O)(=O)O)c1)[C@H]1CC[C@H]2[C@@H]3[C@H](O)C[C@@H]4C[C@H](O)CC[C@]4(C)[C@H]3C[C@H](O)[C@]12C [CamSA, 3-[(3α,7α,12α-trihydroxy-24-oxo-5β-cholan-24-yl)amino]benzenesulfonic acid]
window for CamSA to be effective in CDI prevention: ≥ 6 h
